These results are taken from publication PMC10773898, “Evidence of DISC1 as an arsenic binding protein and implications regarding its role as a translational activator” (Frontiers in Molecular Biosciences, 2023).

The chains behind the UniProt entries cited, without tags or fusion partners. Residues count along the entry.
UniProt Q9NRI5, 598-854 W602F/W752F limits assumed: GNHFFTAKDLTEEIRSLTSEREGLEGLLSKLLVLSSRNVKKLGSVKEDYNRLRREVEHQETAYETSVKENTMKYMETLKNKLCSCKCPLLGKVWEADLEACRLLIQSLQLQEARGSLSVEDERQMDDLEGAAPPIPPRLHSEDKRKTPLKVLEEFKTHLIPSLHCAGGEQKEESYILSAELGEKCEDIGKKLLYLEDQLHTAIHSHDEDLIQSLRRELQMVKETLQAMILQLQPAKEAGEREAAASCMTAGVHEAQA

The assay addresses DISC1 C-terminal construct (598-854), "WT" (Homo sapiens, UniProt Q9NRI5, W602F/W752F). The assay is described as follows: tryptophan fluorescence quenching titration. To be noted: read-out: Kd (high); 50 mM Tris-HCl, 10 mM NaCl, pH 8.0, 2 μM protein; two-site model, specific (stronger) site, Cys motif C680/C682/C684; one Kd from collective fit of WT and all variants.

One may read the Kd as a measure of binding affinity in units of concentration. In the case of `O[As](O)O`, the dissociation constant Kd was determined as 0.88 µM.
